Experiments:
Test in all cases: Cell viability assay (MTS), relative cell survival
Conditions in all cases: dose range, 4 h + 44 h incubation
[1] = tested on: SKBR3-TR (trastuzumab resistant breast cancer) cells; type: cell-based, human
Protocol: (§1) BT474 (human breast cancer) cells, BT474-TR (trastuzumab-resistant human breast cancer) cells, SKBR3 (human breast cancer) cells, and SKBR3-TR (trastuzumab resistant breast cancer) cells were incubated with various concentrations of Eos-001, trastuzumab, or combination trastuzumab and pertuzumab. The concentration of Eos-001 is reported in μM doxorubicin, and the concentration of trastuzumab or pertuzumab is reported in μM antibody. The cells per well were plated in black-walled, clear-bottom, 96-well plates. 48 hours later, the media was aspirated and replaced with complete media and the indicated concentrations of Eos-001, trastuzumab (Tz), or a combination of trastuzumab and pertuzumab (Tz+Pz), or an untreated control at a total volume of 40 μL. […] At the conclusion of the incubation, relative cell viability was determined via MTS assay (Promega) according to manufacturer's instructions. […] The plate was then incubated with rocking at 37° C. and 5% CO2 and readings were taken of the plate at 1, 2, and 3 hours at 490 nm using a spectrophotometer. […]
(§2) To verify the contribution of HER3 targeted toxicity of the Eos-001 nanoparticles, a HER3 peptide was used as a competitive inhibitor. […] Cell survival was measured after 48 hours, and compared to cells treated with a mock saline. […]

[2] = tested on: SKBR3 (human breast cancer) cells; type: cell-based
Protocol: as §1, §2

[3] = tested on: BT474 (human breast cancer) cells; type: cell-based
Protocol: (§3) Plates were rocked for 4 hours at 37° C. and 5% CO2 and then 60 μL of complete media was added to each well to bring the total volume to 100 μL and the incubation was continued, without rocking, for 44 hours at 37° C. and 5% CO2. At the conclusion of the incubation, relative cell viability was determined via MTS assay (Promega) according to manufacturer's instructions. Specifically, the media was removed from the wells and 100 μL of fresh complete media was added to each well. 20 μl of the prepared MTS reagent was added to each well. The plate was then incubated with rocking at 37° C. and 5% CO2 and readings were taken of the plate at 1, 2, and 3 hours at 490 nm using a spectrophotometer.
as §3, with “The cells per well were plated in black-walled, clear-bottom, 96-well plates. […] Plates” for “Plates”, “Specifically, the media was removed from the wells and 100 μL of fresh complete media was added to each well. 20 μl of the prepared MTS reagent was added to each well.” left out, “spectrophotometer. […]” for “spectrophotometer.”

[4] = tested on: BT474-TR (trastuzumab-resistant human breast cancer) cells; type: cell-based
Protocol: as §1, with “plates.” for “plates. 48 hours later, the media was aspirated and replaced with complete media and the indicated concentrations of Eos-001, trastuzumab (Tz), or a combination of trastuzumab and pertuzumab (Tz+Pz), or an untreated control at a total volume of 40 μL.”
Trastuzumab or pertuzumab treatment of BT474-TR cells was compared to treatment with Eos-001, a combined treatment with Eos-001 and pertuzumab, or Eos-001 after 4 hours of pertuzumab pretreatment. […] At the conclusion of the incubation, relative cell viability was determined via MTS assay (Promega) according to manufacturer's instructions. […] The plate was then incubated with rocking at 37° C. and 5% CO2 and readings were taken at 490 nm using a spectrophotometer. […]

## trastuzumab
[1]
  killing of SKBR3-TR cells: Neither trastuzumab nor the combination of trastuzumab and pertuzumab were effective
[2]
  killing of SKBR3 cells: Neither trastuzumab nor the combination of trastuzumab and pertuzumab were effective
[3]
  effect on survival / killing of BT474 cells: effective in killing BT474 cells
[4]
  killing of BT474-TR cells: not the BT474-TR cells

From patent US20250255978A1, “DRUG-DELIVERY NANOPARTICLES AND TREATMENTS FOR DRUG-RESISTANT CANCER” (Cedars-Sinai Medical Center, priority 2016, published 2025)
